{"source": "paper PMC8624105", "about": "(Viruses, 2021)", "assay_in_all_cases": "holdup assay", "type_in_all_cases": "binding, human", "key": {"MLLT4 PDZ1": {"tested_on": "MLLT4 PDZ1", "conditions": "PDZ about 4 μM; two independent experiments"}, "GIPC3 PDZ1": {"tested_on": "GIPC3 PDZ1", "conditions": "PDZ about 4 μM; two independent experiments"}, "APBA1 PDZ2": {"tested_on": "APBA1 PDZ2", "conditions": "PDZ about 4 μM; sd not given"}, "INTU PDZ1": {"tested_on": "INTU PDZ1", "conditions": "PDZ about 4 μM; two independent experiments"}, "MPDZ PDZ13": {"tested_on": "MPDZ PDZ13", "conditions": "PDZ about 4 μM; two independent experiments"}, "PREX1 PDZ1": {"tested_on": "PREX1 PDZ1", "conditions": "PDZ about 4 μM; two independent experiments"}, "SYNPO2L PDZ1": {"tested_on": "SYNPO2L PDZ1", "conditions": "PDZ about 4 μM; two independent experiments"}, "MPDZ PDZ5": {"tested_on": "MPDZ PDZ5", "conditions": "PDZ about 4 μM; two independent experiments"}, "SNTA1 PDZ1": {"tested_on": "SNTA1 PDZ1", "conditions": "PDZ about 4 μM; two independent experiments"}, "TJP1 PDZ1": {"tested_on": "TJP1 PDZ1", "conditions": "PDZ about 4 μM; two independent experiments"}, "LNX1 PDZ1": {"tested_on": "LNX1 PDZ1", "conditions": "PDZ about 4 μM; two independent experiments"}, "PDZRN3 PDZ2": {"tested_on": "PDZRN3 PDZ2", "conditions": "PDZ about 4 μM; sd not given"}, "PDZD11 PDZ1": {"tested_on": "PDZD11 PDZ1", "conditions": "PDZ about 4 μM; two independent experiments"}, "NHERF1 PDZ1": {"tested_on": "NHERF1 PDZ1"}, "MAGI2 PDZ1": {"tested_on": "MAGI2 PDZ1", "conditions": "PDZ about 4 μM; two independent experiments"}, "LNX1 PDZ4": {"tested_on": "LNX1 PDZ4", "conditions": "PDZ about 4 μM; two independent experiments"}, "GRIP2 PDZ2": {"tested_on": "GRIP2 PDZ2", "conditions": "PDZ about 4 μM; two independent experiments"}, "MAGI1 PDZ5": {"tested_on": "MAGI1 PDZ5", "conditions": "PDZ about 4 μM; sd not given"}, "ARHGEF12 PDZ1": {"tested_on": "ARHGEF12 PDZ1", "conditions": "PDZ about 4 μM; two independent experiments"}, "PTPN13 PDZ1": {"tested_on": "PTPN13 PDZ1", "conditions": "PDZ about 4 μM; two independent experiments"}, "GRIP1 PDZ7": {"tested_on": "GRIP1 PDZ7", "conditions": "PDZ about 4 μM; two independent experiments"}, "NHERF2 PDZ1": {"tested_on": "NHERF2 PDZ1", "conditions": "PDZ about 4 μM; two independent experiments"}, "DLG4 PDZ2": {"tested_on": "DLG4 PDZ2", "conditions": "PDZ about 4 μM; two independent experiments"}, "PDZD2 PDZ5": {"tested_on": "PDZD2 PDZ5", "conditions": "PDZ about 4 μM; two independent experiments"}, "PDZRN4 PDZ2": {"tested_on": "PDZRN4 PDZ2", "conditions": "PDZ about 4 μM; two independent experiments"}, "MAST1": {"tested_on": "MAST1"}, "SHANK1": {"tested_on": "SHANK1"}, "NHERF3 PDZ1": {"tested_on": "NHERF3 PDZ1"}, "SNX27": {"tested_on": "SNX27"}, "TJP2 PDZ3": {"tested_on": "TJP2 PDZ3", "conditions": "PDZ about 4 μM; sd not given"}, "GRIP2 PDZ6": {"tested_on": "GRIP2 PDZ6", "conditions": "PDZ about 4 μM; two independent experiments"}, "InaDl PDZ5": {"tested_on": "InaDl PDZ5", "conditions": "PDZ about 4 μM; two independent experiments"}, "NHERF3 PDZ3": {"tested_on": "NHERF3 PDZ3", "conditions": "PDZ about 4 μM; two independent experiments"}, "MAGI3 PDZ6": {"tested_on": "MAGI3 PDZ6", "conditions": "PDZ about 4 μM; two independent experiments"}, "GOPC PDZ1": {"tested_on": "GOPC PDZ1", "conditions": "PDZ about 4 μM; two independent experiments"}, "SYNP2 PDZ1": {"tested_on": "SYNP2 PDZ1", "conditions": "PDZ about 4 μM; two independent experiments"}, "MPP3 PDZ1": {"tested_on": "MPP3 PDZ1", "conditions": "PDZ about 4 μM; two independent experiments"}, "CNKSR1 PDZ1": {"tested_on": "CNKSR1 PDZ1", "conditions": "PDZ about 4 μM; two independent experiments"}, "USH1C PDZ3": {"tested_on": "USH1C PDZ3", "conditions": "PDZ about 4 μM; two independent experiments"}, "FRMPD1 PDZ1": {"tested_on": "FRMPD1 PDZ1", "conditions": "PDZ about 4 μM; two independent experiments"}, "PTPN13 PDZ4": {"tested_on": "PTPN13 PDZ4", "conditions": "PDZ about 4 μM; two independent experiments"}, "LAP2 PDZ1": {"tested_on": "LAP2 PDZ1", "conditions": "PDZ about 4 μM; two independent experiments"}, "HTRA3 PDZ1": {"tested_on": "HTRA3 PDZ1", "conditions": "PDZ about 4 μM; two independent experiments"}, "AHNAK2 PDZ1": {"tested_on": "AHNAK2 PDZ1", "conditions": "PDZ about 4 μM; sd not given"}, "PDZD4 PDZ1": {"tested_on": "PDZD4 PDZ1", "conditions": "PDZ about 4 μM; two independent experiments"}, "SIPA1L3 PDZ1": {"tested_on": "SIPA1L3 PDZ1", "conditions": "PDZ about 4 μM; two independent experiments"}, "PDZD2 PDZ4": {"tested_on": "PDZD2 PDZ4", "conditions": "PDZ about 4 μM; two independent experiments"}, "MAGI2 PDZ5": {"tested_on": "MAGI2 PDZ5", "conditions": "PDZ about 4 μM; two independent experiments"}, "PREX2 PDZ2": {"tested_on": "PREX2 PDZ2", "conditions": "PDZ about 4 μM; two independent experiments"}, "PDLIM5 PDZ1": {"tested_on": "PDLIM5 PDZ1", "conditions": "PDZ about 4 μM; two independent experiments"}, "[1]": {"conditions": "PDZ about 4 μM, two independent experiments"}, "[2]": {"conditions": "converted from BI, PDZ typically 4 μM, immobilized peptide 21 μM, listed as PBM peptide from ACE2 protein, read-out: Kd estimated"}}, "data": [{"substance": "Biotin-(PEG3)-GFQNTDDVQTSF [ACE2 PBM peptide]", "values": [{"measurement": "BI (binding intensity)", "setting": "MLLT4 PDZ1", "value": -0.01}, {"measurement": "BI (binding intensity)", "setting": "GIPC3 PDZ1", "value": -0.02}, {"measurement": "BI (binding intensity)", "setting": "APBA1 PDZ2", "value": -0.04}, {"measurement": "BI (binding intensity)", "setting": "INTU PDZ1", "value": -0.07}, {"measurement": "BI (binding intensity)", "setting": "MPDZ PDZ13", "value": -0.03}, {"measurement": "BI (binding intensity)", "setting": "PREX1 PDZ1", "value": -0.10}, {"measurement": "BI (binding intensity)", "setting": "SYNPO2L PDZ1", "value": -0.05}, {"measurement": "BI (binding intensity)", "setting": "MPDZ PDZ5", "value": -0.05}, {"measurement": "BI (binding intensity)", "setting": "SNTA1 PDZ1", "value": -0.03}, {"measurement": "BI (binding intensity)", "setting": "TJP1 PDZ1", "value": -0.01}, {"measurement": "BI (binding intensity)", "setting": "LNX1 PDZ1", "value": -0.07}, {"measurement": "BI (binding intensity)", "setting": "PDZRN3 PDZ2", "value": 0.01}, {"measurement": "BI (binding intensity)", "setting": "PDZD11 PDZ1", "value": 0.01}, {"measurement": "BI (binding intensity)", "setting": "NHERF1 PDZ1; [1]", "value": 0.39}, {"measurement": "Kd", "setting": "NHERF1 PDZ1; [2]", "value": 31.1, "unit": "µM"}, {"measurement": "BI (binding intensity)", "setting": "MAGI2 PDZ1", "value": -0.04}, {"measurement": "BI (binding intensity)", "setting": "LNX1 PDZ4", "value": -0.02}, {"measurement": "BI (binding intensity)", "setting": "GRIP2 PDZ2", "value": 0.02}, {"measurement": "BI (binding intensity)", "setting": "MAGI1 PDZ5", "value": 0.16}, {"measurement": "BI (binding intensity)", "setting": "ARHGEF12 PDZ1", "value": 0.04}, {"measurement": "BI (binding intensity)", "setting": "PTPN13 PDZ1", "value": -0.02}, {"measurement": "BI (binding intensity)", "setting": "GRIP1 PDZ7", "value": -0.04}, {"measurement": "BI (binding intensity)", "setting": "NHERF2 PDZ1", "value": 0.15}, {"measurement": "BI (binding intensity)", "setting": "DLG4 PDZ2", "value": -0.02}, {"measurement": "BI (binding intensity)", "setting": "PDZD2 PDZ5", "value": -0.13}, {"measurement": "BI (binding intensity)", "setting": "PDZRN4 PDZ2", "value": -0.02}, {"measurement": "BI (binding intensity)", "setting": "MAST1; [1]", "value": 0.63}, {"measurement": "Kd", "setting": "MAST1; [2]", "value": 10.7, "unit": "µM"}, {"measurement": "BI (binding intensity)", "setting": "SHANK1; [1]", "value": 0.54}, {"measurement": "Kd", "setting": "SHANK1; [2]", "value": 16.3, "unit": "µM"}, {"measurement": "BI (binding intensity)", "setting": "NHERF3 PDZ1; [1]", "value": 0.50}, {"measurement": "Kd", "setting": "NHERF3 PDZ1; [2]", "value": 19.2, "unit": "µM"}, {"measurement": "BI (binding intensity)", "setting": "SNX27; [1]", "value": 0.87}, {"measurement": "Kd estimated", "setting": "SNX27; converted from BI, PDZ typically 4 μM, immobilized peptide 21 μM", "value": "best binder"}, {"measurement": "BI (binding intensity)", "setting": "TJP2 PDZ3", "value": -0.10}, {"measurement": "BI (binding intensity)", "setting": "GRIP2 PDZ6", "value": -0.04}, {"measurement": "BI (binding intensity)", "setting": "InaDl PDZ5", "value": 0.02}, {"measurement": "BI (binding intensity)", "setting": "NHERF3 PDZ3", "value": -0.01}, {"measurement": "BI (binding intensity)", "setting": "MAGI3 PDZ6", "value": -0.03}, {"measurement": "BI (binding intensity)", "setting": "GOPC PDZ1", "value": -0.09}, {"measurement": "BI (binding intensity)", "setting": "SYNP2 PDZ1", "value": -0.05}, {"measurement": "BI (binding intensity)", "setting": "MPP3 PDZ1", "value": -0.04}, {"measurement": "BI (binding intensity)", "setting": "CNKSR1 PDZ1", "value": -0.31}, {"measurement": "BI (binding intensity)", "setting": "USH1C PDZ3", "value": -0.11}, {"measurement": "BI (binding intensity)", "setting": "FRMPD1 PDZ1", "value": -0.03}, {"measurement": "BI (binding intensity)", "setting": "PTPN13 PDZ4", "value": 0.02}, {"measurement": "BI (binding intensity)", "setting": "LAP2 PDZ1", "value": -0.02}, {"measurement": "BI (binding intensity)", "setting": "HTRA3 PDZ1", "value": -0.06}, {"measurement": "BI (binding intensity)", "setting": "AHNAK2 PDZ1", "value": -0.04}, {"measurement": "BI (binding intensity)", "setting": "PDZD4 PDZ1", "value": -0.05}, {"measurement": "BI (binding intensity)", "setting": "SIPA1L3 PDZ1", "value": -0.05}, {"measurement": "BI (binding intensity)", "setting": "PDZD2 PDZ4", "value": -0.01}, {"measurement": "BI (binding intensity)", "setting": "MAGI2 PDZ5", "value": -0.04}, {"measurement": "BI (binding intensity)", "setting": "PREX2 PDZ2", "value": -0.05}, {"measurement": "BI (binding intensity)", "setting": "PDLIM5 PDZ1", "value": -0.08}]}]}
